Values joined by “and” are separate entries in the source; they are usually repeats but may differ in a detail not shown here. Equal entries are not always repeated.
target: Mitogen-activated protein kinase kinase kinase 14 (Homo sapiens, UniProt Q99558); experiment: Inhibition Assay: The ability of the nuclear factor-kappa B (NF-kB)-inducing kinase (NIK) to catalyze the hydrolysis of adenosine-5'-triphosphate (ATP) was monitored using the Transcreener ADP (adenosine-5'-diphosphate) assay (BellBrook Labs). Purified NIK (0.2-1 nM) derived from a baculovirus-infected insect cell expression system was incubated with test compounds for 1-3.5 hours in 50 mM 2-[4-(2-hydroxyethyl)piperazin-1-yl]ethanesulfonic acid buffer (pH 7.2) containing 10 mM MgCl2, 2 mM dithiothreitol, 10 uM ATP, 0.01% Triton X-100, 0.1% gamma-globulins from bovine blood, 1% dimethylsulfoxide (DMSO), 12 ug/mL ADP antibody and 4 nM ADP-AlexaFluor.RTM. […] Reactions were quenched by the addition of 20 mM 2,2',2'',2'''-(ethane-1,2-diyldinitrilo)tetraacetic acid and 0.01% Brij 35. The tracer bound to the antibody was displaced by the ADP generated during the NIK reaction, which causes a decrease in fluorescence polarization that was measured by laser excitation.

Sequences of proteins named here, by UniProt entry; tags and fusion partners are left off. A change or cut given only in a name is not applied to a line headed by its entry.
UniProt Q99558: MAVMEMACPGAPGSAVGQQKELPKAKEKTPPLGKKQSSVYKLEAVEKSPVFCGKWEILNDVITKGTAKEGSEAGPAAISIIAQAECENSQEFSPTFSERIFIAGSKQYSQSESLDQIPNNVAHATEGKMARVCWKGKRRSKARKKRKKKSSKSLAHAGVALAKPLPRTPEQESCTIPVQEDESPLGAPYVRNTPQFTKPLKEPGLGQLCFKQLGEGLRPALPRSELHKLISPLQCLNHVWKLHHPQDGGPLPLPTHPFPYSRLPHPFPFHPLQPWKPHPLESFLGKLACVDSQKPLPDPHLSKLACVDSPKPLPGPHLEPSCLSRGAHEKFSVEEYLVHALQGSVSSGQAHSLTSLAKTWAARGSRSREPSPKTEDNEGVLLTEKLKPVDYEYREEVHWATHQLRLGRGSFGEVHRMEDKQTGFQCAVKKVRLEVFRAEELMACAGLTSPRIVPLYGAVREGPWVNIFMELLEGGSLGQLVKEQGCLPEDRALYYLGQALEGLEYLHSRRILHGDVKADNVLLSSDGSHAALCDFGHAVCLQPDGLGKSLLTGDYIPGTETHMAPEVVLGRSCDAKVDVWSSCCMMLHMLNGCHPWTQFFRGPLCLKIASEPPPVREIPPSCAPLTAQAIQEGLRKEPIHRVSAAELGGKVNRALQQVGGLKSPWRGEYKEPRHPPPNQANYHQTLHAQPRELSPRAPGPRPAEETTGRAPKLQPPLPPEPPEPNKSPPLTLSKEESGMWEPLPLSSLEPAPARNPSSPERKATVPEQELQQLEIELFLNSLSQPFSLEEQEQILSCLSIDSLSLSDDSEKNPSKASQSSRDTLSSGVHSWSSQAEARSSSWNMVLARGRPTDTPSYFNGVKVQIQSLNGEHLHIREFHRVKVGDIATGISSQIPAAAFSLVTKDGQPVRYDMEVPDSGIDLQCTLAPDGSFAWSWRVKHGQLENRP

Row | SMILES | Ki
1 | CO[C@@H]1COc2ccc(C#C[C@]3(O)CCN(C)C3=O)cc2-c2nc(C(N)=O)sc21 | 3 nM and 0.9 nM
2 | CN1CC[C@@](O)(C#Cc2ccc3c(c2)-c2nc(C(N)=O)sc2[C@](C)(O)CO3)C1=O | 4 nM and 0.7 nM
3 | Cc1nc([C@](C)(O)C#Cc2ccc3c(c2)-c2nc(C(N)=O)sc2[C@@H](O)CO3)no1 | 10 nM and 56 nM
4 | Cc1nc([C@](C)(O)C#Cc2ccc3c(c2)-c2nc(C(N)=O)sc2[C@H](O)CO3)no1 | 10 nM and 56 nM
